The test addresses Adenosine receptor A1 (Rattus norvegicus) (UniProt P25099). Description: Ability to displace [3H]N6-phenylisopropyladenosine binding from adenosine A1 receptor.

Protein sequences, listed by entry. Tags and fused reporters are not part of them.
UniProt P25099, whole entry: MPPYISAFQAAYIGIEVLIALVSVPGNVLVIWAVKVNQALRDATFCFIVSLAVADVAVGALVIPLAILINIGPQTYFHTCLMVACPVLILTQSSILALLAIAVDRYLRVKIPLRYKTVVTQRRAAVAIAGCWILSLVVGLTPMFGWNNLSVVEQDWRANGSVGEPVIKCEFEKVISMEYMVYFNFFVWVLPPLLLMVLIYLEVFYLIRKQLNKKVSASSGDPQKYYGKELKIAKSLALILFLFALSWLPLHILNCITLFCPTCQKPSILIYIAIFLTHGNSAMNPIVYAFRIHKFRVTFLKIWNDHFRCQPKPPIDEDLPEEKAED

In turn, `O=c1cc(-c2ccccc2)oc2cccc(O)c12` came in with a pKi(uM) of -0.34.

The values are drawn from ChEMBL document CHEMBL1131204, “Flavonoid derivatives as adenosine receptor antagonists: a comparison of the hypothetical receptor binding site based on a comparative molecular field analysis model” (J Med Chem, 1998).
